## Measured affinities in a library of Ab-14 light chain variants

The target is the same throughout: PDVDLGDISGINAS, from the HR2 region of SARS-CoV-2 spike.

The variants keep the heavy chain, the linker and the frameworks of Ab-14 (scFv order VH, three GGGGS repeats, VL).
VH: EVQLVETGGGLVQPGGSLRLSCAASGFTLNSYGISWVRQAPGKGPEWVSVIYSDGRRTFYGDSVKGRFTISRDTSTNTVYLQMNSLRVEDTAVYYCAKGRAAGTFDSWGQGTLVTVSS
VL: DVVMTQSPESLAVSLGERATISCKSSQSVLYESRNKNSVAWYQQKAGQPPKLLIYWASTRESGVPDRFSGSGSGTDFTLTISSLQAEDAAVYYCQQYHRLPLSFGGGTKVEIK

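Phage display of a naive human antibody library on the peptide gave the parent. The library (AAYL50) carries one to three amino acid substitutions per variant, with no insertions or deletions. Affinity was read by AlphaSeq, a pooled yeast mating assay with surface-displayed partners. Pairs that bind mate more often; barcode pairs of the diploids are counted by sequencing. Read counts were normalised to the haploid input and turned into Kd by a linear fit to BCL2-family pairs of known affinity, for each replicate. Each pool was mated in three replicate cultures.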

The parent's light chain CDRs are KSSQSVLYESRNKNSVA, WASTRES, QQYHRLPLS; each variant's own CDRs replace them letter for letter.
The read-out is the apparent dissociation constant on a log10 scale (nM): the lower, the stronger.
Averages over replicates are reported, and they cover detected replicates only.
"nd" marks a missing value. The strain was present, yet no cells mated with the target were sequenced in that replicate, which points to weak or no binding.
Background: pairings of library AAYL50 with three empty control strains gave a value in 18% of cases (median 4.19, 5th percentile 2.99). Values in that range, when seen in few replicates, are hard to tell from nonspecific mating.

CDR-L1,CDR-L2,CDR-L3,"log10 Kd, replicates",mean log10 Kd (nM)
KSSQSVLYESRNKNSVA,WASVRES,QQYHRLPQW,nd nd nd,nd
KSSQSVLYESRNKNSVA,WASTRES,QQYHGQPLS,nd nd nd,nd
KSSQSVLYSSRNKNSWA,WASTRFS,QQYHRLPLS,nd nd nd,nd
KSSQSVLYESRNPNSVA,WASTRES,QQYHILPLS,0.64 0.88 0.85,0.79
KSYQSMLYESRNKNSVK,WASTRES,QQYHRLPLS,4.26 nd 3.51,3.89
KSSQSVLYESRNKNSVA,WASTRMP,QMYHRLPLS,1.11 1.52 1.33,1.32
KSSQSVLYMSRNTNSVA,WASTRES,QQGHRLPLS,nd nd nd,nd
KYSQSVLYESRNKNSVA,WASTRES,QQYHRLPPS,nd 3.69 nd,3.69
KSSQSVLAESRNKNSVA,WASTRES,QQYHRLPSS,nd nd nd,nd
MSSQSVLYESRNKNSVD,WASTRES,QEYHRLPLS,nd nd nd,nd
KSSQSVLAESYNKNSVA,WASTRES,QQYHRFPLS,0.70 0.87 1.41,0.99
KSSQSVLYESRNKNSVA,MASTVES,QQYHRNPLS,nd nd nd,nd
KSSTSVLYESRYKNSVA,WASTRKS,QQYHRLPLS,nd 3.34 5.72,4.53
KSSDSVLYESRNKASVA,WACTRES,QQYHRLPLS,2.87 2.99 3.66,3.17
KSSQSVLYESRNKNSVA,WASTRES,QQYHRQSLS,0.41 0.70 0.60,0.57
KSSLSVLYESRNKNSVA,WASFRMS,QQYHRLPLS,2.31 2.18 2.14,2.21
RSSQSVEYNSRNKNSVA,WASTRES,QQYHRLPLS,nd nd nd,nd
KSSQSVLYESRNKNSVA,WASTRES,QTYHYLPLS,1.27 1.14 1.25,1.22
KSSQSVLYPCRCKNSVA,WASTRES,QQYHRLPLS,2.81 2.37 3.12,2.77
KSSQSVLYESRNYNSVA,WASTRES,QQYHWLPLS,2.11 1.86 1.92,1.96
KSSQSHLYESRNKNSVL,WASTVES,QQYHRLPLS,nd nd nd,nd
KSLQSVLYESRNKNSVA,WASTTES,QHYHRLPLS,nd nd nd,nd

Second part, the sequence after the result:

"log10 Kd, replicates",mean log10 Kd (nM),CDR-L1,CDR-L2,CDR-L3
nd nd nd,nd,KSSQSVLYTSRNKNSVF,WASTRES,QQYHRIPLS
2.72 3.14 2.90,2.92,KSSQYVLYESRNKNSVA,WASTRHS,QQYHRLDLS
2.25 2.50 2.92,2.56,KSSQSVLYESRNKNSVA,WAQTRES,QQYHRFPPS
2.76 2.76 2.26,2.59,KSSQSVLYESDNKNSVA,WASAREC,QQYHRLPLS
1.47 1.62 1.57,1.55,KSYQSVLYETRNKNSVA,WASTRES,QQYHRLPLS
1.00 1.42 1.03,1.15,KYSQSVLYESRNKNSVA,WASTRES,MQYHRLMLS
nd nd nd,nd,KSTQFVLYESRNKNSVA,WASTRES,QQYHDLPLS
1.46 1.55 1.67,1.56,KGSQSVMYESRNKNSVA,CASTRES,QQYHRLPLS
nd nd nd,nd,KSSRSVLYESRNKNSVA,WASELES,QQYHRLPLS
nd nd nd,nd,KSSDSVLYESRNKNSVA,WASTREF,QQYHQLPLS
1.70 1.52 1.56,1.59,KSSQSDLYESRNKNSVA,WASTRGF,QQYHRLPLS
nd nd nd,nd,KSSQSVLYMSRNKNSVQ,YASTRES,QQYHRLPLS
nd 5.41 4.27,4.84,KSSQMVLYESSNKNSVA,PASTRES,QQYHRLPLS
0.82 1.04 0.97,0.94,KSFQSVLYDSRNKNSVA,WASTRES,QQYHRLPCS
nd 3.42 4.59,4.00,KSSQSVLYESRNKNSNK,WASTRES,QQYHRLPLS
3.28 4.21 3.39,3.63,KQSQSVLMESRNKNSVA,WASTRES,QQYHRHPLS
nd nd nd,nd,KSSQSVLYESRNKNSVA,WASTREW,PQYHRLPLS
-0.38 -0.02 -0.24,-0.21,KTSQSVLYDSRNKNNVA,WASTRES,QQYHRLPLS
1.18 1.04 1.38,1.20,KSSQSMLYQSRNKNSVA,WASTREL,QQYHRLPLS
1.98 2.25 2.01,2.08,CSSQSVLYESRNKNSVA,WASTRYH,QQYHRLPLS
nd nd nd,nd,KSSQSVLYESRAKNSVA,WASTRES,QQYHKLPLS
nd nd nd,nd,KSSQSVLYEQSNKNSVA,WAPTRES,QQYHRLPLS
0.84 2.44 1.06,1.45,KSSQSTLYESRNTNQVA,WASTRES,QQYHRLPLS

For reference, 2 entries of the list once more:

| CDR-L1 | CDR-L2 | CDR-L3 | log10 Kd, replicates | mean log10 Kd (nM) |
|---|---|---|---|---|
| KSSQSHLYESRNKNSVL | WASTVES | QQYHRLPLS | nd nd nd | nd |
| KSSDSVLYESRNKNSVA | WASTREF | QQYHQLPLS | nd nd nd | nd |

Data: MIT Lincoln Laboratory AlphaSeq set, Engelhart et al. 2022, doi:10.1038/s41597-022-01779-4, as distributed in FLAb.